The source of these data is ChEMBL document CHEMBL5360629, “AI-Powered Virtual Screening of Large Compound Libraries Leads to the Discovery of Novel Inhibitors of Sirtuin-1” (J Med Chem, 2023).

The chains behind the UniProt entries cited, without tags or fusion partners. Where a name states a change or a piece, a line headed by the entry shows the natural chain unless it says otherwise.
UniProt P43166: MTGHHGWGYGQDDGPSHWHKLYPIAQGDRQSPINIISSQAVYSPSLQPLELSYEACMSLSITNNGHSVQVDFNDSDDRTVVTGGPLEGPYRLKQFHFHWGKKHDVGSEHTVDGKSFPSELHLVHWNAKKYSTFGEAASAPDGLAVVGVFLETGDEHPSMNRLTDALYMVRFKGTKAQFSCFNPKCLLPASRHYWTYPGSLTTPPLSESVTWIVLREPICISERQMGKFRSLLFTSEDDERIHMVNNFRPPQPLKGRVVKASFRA
UniProt P00915: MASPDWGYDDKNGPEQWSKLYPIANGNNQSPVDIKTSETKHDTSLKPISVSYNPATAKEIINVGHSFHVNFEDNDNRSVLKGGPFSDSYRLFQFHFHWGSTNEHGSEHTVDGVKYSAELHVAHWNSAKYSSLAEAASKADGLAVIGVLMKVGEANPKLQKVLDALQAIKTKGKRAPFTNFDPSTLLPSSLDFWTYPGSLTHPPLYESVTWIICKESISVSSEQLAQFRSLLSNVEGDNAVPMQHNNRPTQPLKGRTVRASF
UniProt P07451: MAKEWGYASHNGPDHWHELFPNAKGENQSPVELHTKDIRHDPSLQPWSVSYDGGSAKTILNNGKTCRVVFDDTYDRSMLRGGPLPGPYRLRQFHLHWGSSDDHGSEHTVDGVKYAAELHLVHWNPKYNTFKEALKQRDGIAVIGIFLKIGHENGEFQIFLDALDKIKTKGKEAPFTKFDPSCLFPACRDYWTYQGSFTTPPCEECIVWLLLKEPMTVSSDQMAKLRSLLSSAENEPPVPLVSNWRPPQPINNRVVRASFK
UniProt P23280: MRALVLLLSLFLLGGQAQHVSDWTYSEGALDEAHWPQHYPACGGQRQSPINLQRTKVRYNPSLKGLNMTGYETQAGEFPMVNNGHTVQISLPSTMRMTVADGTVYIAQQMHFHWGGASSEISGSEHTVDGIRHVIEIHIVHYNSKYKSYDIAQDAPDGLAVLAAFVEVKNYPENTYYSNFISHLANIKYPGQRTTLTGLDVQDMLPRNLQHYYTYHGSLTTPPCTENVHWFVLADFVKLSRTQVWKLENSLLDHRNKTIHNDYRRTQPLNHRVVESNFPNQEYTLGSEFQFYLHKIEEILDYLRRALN
UniProt O43570: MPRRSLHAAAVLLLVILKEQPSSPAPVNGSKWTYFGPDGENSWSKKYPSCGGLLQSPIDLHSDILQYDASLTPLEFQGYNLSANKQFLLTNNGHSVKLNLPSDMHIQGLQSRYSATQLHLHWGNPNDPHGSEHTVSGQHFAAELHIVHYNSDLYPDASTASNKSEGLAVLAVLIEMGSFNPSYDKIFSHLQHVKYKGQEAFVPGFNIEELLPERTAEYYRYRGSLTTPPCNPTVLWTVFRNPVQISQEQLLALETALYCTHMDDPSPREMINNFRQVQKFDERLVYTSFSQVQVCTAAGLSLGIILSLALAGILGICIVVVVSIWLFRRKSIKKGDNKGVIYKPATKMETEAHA
UniProt Q9ULX7: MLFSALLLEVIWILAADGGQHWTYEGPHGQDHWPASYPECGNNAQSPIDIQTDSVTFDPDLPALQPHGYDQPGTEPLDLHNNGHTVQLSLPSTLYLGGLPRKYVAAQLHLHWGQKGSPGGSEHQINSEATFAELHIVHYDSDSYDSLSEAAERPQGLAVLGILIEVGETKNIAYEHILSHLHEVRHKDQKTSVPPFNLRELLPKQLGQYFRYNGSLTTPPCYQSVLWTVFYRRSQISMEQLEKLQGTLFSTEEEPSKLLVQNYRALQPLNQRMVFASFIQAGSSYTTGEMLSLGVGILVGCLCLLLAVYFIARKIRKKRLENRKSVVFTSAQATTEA
UniProt P22748: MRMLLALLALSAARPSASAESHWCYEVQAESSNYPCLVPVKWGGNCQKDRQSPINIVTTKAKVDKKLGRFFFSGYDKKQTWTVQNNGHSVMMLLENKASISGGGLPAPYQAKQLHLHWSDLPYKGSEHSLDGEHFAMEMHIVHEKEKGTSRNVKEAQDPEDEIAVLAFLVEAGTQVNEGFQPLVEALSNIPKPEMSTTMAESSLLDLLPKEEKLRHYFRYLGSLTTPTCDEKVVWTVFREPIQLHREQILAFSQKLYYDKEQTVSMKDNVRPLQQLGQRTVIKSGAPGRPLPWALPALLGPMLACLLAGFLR
UniProt Q8N1Q1: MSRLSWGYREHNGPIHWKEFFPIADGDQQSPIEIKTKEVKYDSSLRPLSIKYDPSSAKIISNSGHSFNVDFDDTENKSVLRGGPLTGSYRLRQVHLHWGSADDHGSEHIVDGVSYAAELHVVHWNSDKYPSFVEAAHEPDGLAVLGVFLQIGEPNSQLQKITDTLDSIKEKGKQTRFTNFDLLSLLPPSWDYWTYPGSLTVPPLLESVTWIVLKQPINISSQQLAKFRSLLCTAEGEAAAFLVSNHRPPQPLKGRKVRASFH
UniProt Q9Y2D0: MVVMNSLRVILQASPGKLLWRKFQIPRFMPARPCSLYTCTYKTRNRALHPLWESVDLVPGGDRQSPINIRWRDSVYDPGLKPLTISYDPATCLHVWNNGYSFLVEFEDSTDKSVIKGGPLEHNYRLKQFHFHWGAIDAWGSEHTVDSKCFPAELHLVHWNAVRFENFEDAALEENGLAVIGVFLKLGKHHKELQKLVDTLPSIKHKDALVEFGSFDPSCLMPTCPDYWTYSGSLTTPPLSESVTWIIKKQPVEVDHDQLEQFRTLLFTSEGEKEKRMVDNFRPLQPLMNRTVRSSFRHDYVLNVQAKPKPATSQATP
UniProt P35218: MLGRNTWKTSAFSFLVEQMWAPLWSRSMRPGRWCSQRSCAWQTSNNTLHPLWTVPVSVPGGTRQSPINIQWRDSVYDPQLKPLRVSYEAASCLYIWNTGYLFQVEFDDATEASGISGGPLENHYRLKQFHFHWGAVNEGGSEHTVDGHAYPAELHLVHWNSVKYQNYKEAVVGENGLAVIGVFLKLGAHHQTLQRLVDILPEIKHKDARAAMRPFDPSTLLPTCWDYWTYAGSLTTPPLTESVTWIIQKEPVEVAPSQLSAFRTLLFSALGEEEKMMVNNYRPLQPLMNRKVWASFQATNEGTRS

Each structure is given as a SMILES string. The source made the active and inactive calls. The calls are words filed in the database; no cut-off is given here.

This assay has as its target Carbonic anhydrase (Homo sapiens) (UniProt P00918+P43166+P00915+P07451+P23280+O43570+Q9ULX7+Q16790+P22748+Q8N1Q1+Q9Y2D0+P35218). In words: Binding affinity to carbonic anhydrase (unknown origin) assessed as change in melting temperature incubated for 15 mins by Sypro orange staining based thermal scanning analysis. Format: protein assay. To be noted: dose 0.01-1000 µM.
In the case of `Cc1ccc(C(=O)NCCc2c[nH]c3ccccc23)cc1`, the Activity entry is “Dose-Dependent Effect”.
With `O=C(NCCc1c[nH]c2ccccc12)c1cc2ccccc2cc1O` the entry was “Dose-Dependent Effect”; with `O=C(Nc1ccccc1)Nc1ccc(NC(=O)c2ccccc2)cc1`, “Dose-Dependent Effect”.
As for `O=C(Nc1ccccc1)Nc1cccc(NC(=O)c2ccccc2)c1`, the entry is “inactive”; as for `O=C(NCCc1c[nH]c2ccccc12)c1ccc(F)cc1`, “Dose-Dependent Effect”.
Turning to `O=C(NCCc1c[nH]c2ccccc12)c1ccc(Cl)cc1`, the Activity result was “Dose-Dependent Effect”.
In the case of `O=C(NCCc1c[nH]c2ccccc12)c1n[nH]c2ccccc12`, the Activity entry was “Dose-Dependent Effect”.
